Publication PMC10931833, “Simultaneous Purification of Human Interferon Alpha-2b and Serum Albumin Using Bioprivileged Fluorinated Ionic Liquid-Based Aqueous Biphasic Systems” (International Journal of Molecular Sciences, 2024)
Where “and” joins values, the source holds several entries; their conditions need not be identical. Equal values may be shown once.

Sequences of proteins named here, by UniProt entry; tags and fusion partners are left off. Residues count along the entry.
UniProt P02769, 25-607: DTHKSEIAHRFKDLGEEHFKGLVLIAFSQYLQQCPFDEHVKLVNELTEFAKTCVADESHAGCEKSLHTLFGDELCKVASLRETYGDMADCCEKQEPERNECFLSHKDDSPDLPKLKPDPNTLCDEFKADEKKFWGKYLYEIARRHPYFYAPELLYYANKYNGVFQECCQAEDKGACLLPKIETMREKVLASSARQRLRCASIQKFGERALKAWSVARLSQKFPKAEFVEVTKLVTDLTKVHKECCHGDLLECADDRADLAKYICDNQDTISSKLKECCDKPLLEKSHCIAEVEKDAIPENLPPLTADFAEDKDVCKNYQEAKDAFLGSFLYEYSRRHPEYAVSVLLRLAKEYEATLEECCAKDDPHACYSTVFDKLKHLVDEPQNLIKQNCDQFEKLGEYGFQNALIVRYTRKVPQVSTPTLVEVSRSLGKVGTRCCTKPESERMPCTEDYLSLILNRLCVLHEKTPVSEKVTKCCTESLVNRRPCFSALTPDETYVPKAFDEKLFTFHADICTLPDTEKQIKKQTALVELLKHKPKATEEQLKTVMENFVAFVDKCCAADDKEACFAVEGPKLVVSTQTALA

What was measured:
BSA [1] = target: T1, BSA (Bos taurus, UniProt P02769); assay: DSC of BSA in or recovered from ABS phases
[2] = parameters: method as in ref 44 (IFN-α2b), 91 (BSA), 96 (Lys); conditions: ref 44 (IFN-α2b), 91 (BSA), 96 (Lys); cited from earlier work
BSA [3] = target: T1, BSA; assay: CD thermal unfolding (Tm) of BSA; format: physicochemical, bovine; parameters: purchased Millipore Sigma-Aldrich; conditions: 1.2-1.6 mg/mL BSA in [N1112(OH)][H2PO4]-rich phase of BP#8
Description: The thermal stability assessed by far-UV CD is solely determined through the thermal decay of the alpha-helical structure.

BSA [4] = target: T1, BSA; assay: DSC thermal unfolding of BSA in water and aqueous solutions of ABS phase-forming components; format: physicochemical, bovine; parameters: purchased Millipore Sigma-Aldrich; conditions: 1.0 mg/mL BSA in water
Method: Differential scanning calorimetry (DSC) measurements were performed with Nano DSC equipment, as detailed in Section 3, and used to determine the melting temperature (T m ) and enthalpy ( Δ H) of protein unfolding. DSC analyzes changes in the structure and stability of proteins as thermal transitions at the nanoscale. Using DSC to measure heat capacity as a function of the temperature of a well-studied protein such as BSA provides keen insights into folding and unfolding processes, as well as factors affecting stability. Due to the volume and concentration requirements of the DSC technique, and the constraints in available quantities of IFN- α 2b the DSC experiments on the ABS phase-forming components’ effect on the structural properties of proteins were attained only for BSA.
The T m of BSA, which corresponds to the thermal unfolding transition midpoint, was measured in the absence and presence of the ABS phase-forming components at increasing concentrations (see Figure 1 and Table 2).

Substance: Bovine serum albumin [BSA]
- DSC melting temperature Tm (BSA [1]; BSA 0.25 mg/mL in water): 79.86 ± 0.014 °C
- DSC melting temperature Tm (BSA [1]; BSA 0.25 mg/mL recovered from [C2C1Im][C4F9SO3]-rich phase of BP#5, resuspended in water): 78.79 ± 0.02 °C
- DSC melting temperature Tm (BSA [1]; BSA in [N1112(OH)][H2PO4]-rp (BP#8), 1.2–1.6 mg/mL per title): 43.61 ± 0.01 °C and 43.61 ± 0.011 °C
- iso-electric point [2]: ~4.7
- Tm, Ellipticity 192 nm (BSA [3]): 75.765 °C
- Tm (BSA [4]): 75.59 °C
- ΔHcal/ΔHvH (BSA [4]): 0.997
